The record followed here is patent US20120220567A1, “BENZO-FUSED OXAZEPINE COMPOUNDS AS STEAROYL-COENZYME A DELTA-9 DESATURASE INHIBITORS” (priority 2009, published 2012).

Sequences of proteins named here, by UniProt entry; tags and fusion partners are left off.
UniProt O00767, whole entry: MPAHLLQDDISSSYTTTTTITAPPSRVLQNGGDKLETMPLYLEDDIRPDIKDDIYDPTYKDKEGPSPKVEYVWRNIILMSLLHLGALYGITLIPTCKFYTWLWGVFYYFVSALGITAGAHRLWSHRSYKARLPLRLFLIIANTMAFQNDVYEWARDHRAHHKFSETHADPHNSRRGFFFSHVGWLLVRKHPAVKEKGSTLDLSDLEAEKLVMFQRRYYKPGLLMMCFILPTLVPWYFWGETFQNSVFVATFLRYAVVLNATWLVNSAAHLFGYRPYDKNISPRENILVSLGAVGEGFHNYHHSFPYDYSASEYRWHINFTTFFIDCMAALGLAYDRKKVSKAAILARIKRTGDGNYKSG

The term IC50 denotes the concentration at which inhibition is half-maximal.

For one assay, the target named is SCD-1 (Homo sapiens, UniProt O00767). Description: Stearoyl-CoA desaturase assay (HepG2 cell P2 pellet). The conditions noted are these: read-out: Ave IC50 nM; Table 1, compounds of formula (Ia); protein from HepG2 cell P2 pellet, 20 μM stearoyl-CoA, 15 min at 25° C.
Take `CCc1ccc(CN2CCC3(CCN(C(=O)CNC(=O)CCC(=O)OC)CC3)Oc3ccccc32)cc1`: the IC50 fell in the range of 500 to 10000 nM.
On the same count and under the same terms, the same measure for `CC(=O)NCC(=O)N1CCC2(CC1)CCN(Cc1cccc(C(F)(F)F)c1)c1cccc(Cl)c1O2`: 500 to 10000 nM; for `CCc1ccc(CN2CCC3(CCN(C(=O)CNC(=O)CCC(=O)O)CC3)Oc3ccccc32)cc1`: 500 to 10000 nM.
As for `CC(=O)NCC(=O)N1CCC2(CC1)CCN(Cc1cccc(C(F)(F)F)c1)c1cc(F)ccc1O2`, the IC50 lay within 500 to 10000 nM.

The assay is the same for the next values; noted with them: read-out: Ave IC50 nM; Table 2, compounds of formula (Ib); protein from HepG2 cell P2 pellet, 20 μM stearoyl-CoA, 15 min at 25° C.
As to `CC(C)(C)OC(=O)CCNC(=O)c1cnc(N2CCC3(CC2)CCN(Cc2cccc(C(F)(F)F)c2)c2cccc(F)c2O3)s1`, the IC50 fell in the range of 50 to 499 nM.
Consider `CNC(=O)c1cnc(N2CCC3(CC2)CCN(Cc2cccc(C(F)(F)F)c2)c2cccc(F)c2O3)s1`, for which the 50% inhibitory concentration (IC50) was 0.5 to 49 nM.
Take `COC(=O)CCNC(=O)c1cnc(N2CCC3(CC2)CCN(Cc2ccc(C(C)(C)C)cc2)c2cccc(F)c2O3)s1`: the IC50 lay in the range of 0.5 to 49 nM.

Still in this assay, the particulars now being: read-out: Ave IC50 nM; Table 3, compounds of formula (Ic); protein from HepG2 cell P2 pellet, 20 μM stearoyl-CoA, 15 min at 25° C.
For the molecule `CC(C)(C)c1ccc(CN2CCC3(CCN(c4ccc(C(=O)NCCc5ccncc5)cn4)CC3)Oc3c(F)cccc32)cc1`, the IC50 lay within 50 to 499 nM.
The same measure, in the same setting: the result for `COC(=O)CCNC(=O)c1ccc(N2CCC3(CC2)CCN(Cc2ccc(C(C)(C)C)cc2)c2cccc(F)c2O3)nn1` reads 50 to 499 nM; that for `CC(C)(C)c1ccc(CN2CCC3(CCN(c4ccc(C(=O)NCCC5CC5)cn4)CC3)Oc3ccccc32)cc1`, 50 to 499 nM.
Still for that read-out and setting: the result for `CC(C)(C)c1ccc(CN2CCC3(CCN(c4ccc(C(=O)NCCc5cccnc5)cn4)CC3)Oc3c(F)cccc32)cc1` reads 50 to 499 nM.
As for `O=C(NCC1CCCCC1)c1ccc(N2CCC3(CC2)CCN(Cc2cccc(C(F)(F)F)c2)c2ccccc2O3)nn1`, the IC50 was 500 to 10000 nM.
